Literature values as cited in paper PMC4293901.

Target: megalin (UniProt P98164)

Kd: 500 nM
Substance: transthyretin (from UniProt P02766)
